# Patent publication US20250000814A1 (DONG-A ST CO., LTD., priority 2021, published 2025)
# Experiment: Solubility evaluation for the solubilizer propylene glycol monocaprylate
# Description: The resulting mixture was treated in a shaking constant temperature bath at 25° C. for 24 hours.
# <Liquid Chromatography Conditions>
Substance,"Propylene glycol monocaprylate solubility (25° C., 24 hours, 50 mg as memantine free base added to 1 mL) [µg/mL]",Propylene glycol monocaprylate solubility [µg/mL]
Memantine Hemi-Oxalate,<5000,
Memantine Hemi-L-Tartrate,,<5000

# Read-outs that look alike come from different tables or passages of the source.
